{"sequences": {"note": "Amino acid sequences for entries named in this document (tags omitted).", "UniProt P08170, whole entry": "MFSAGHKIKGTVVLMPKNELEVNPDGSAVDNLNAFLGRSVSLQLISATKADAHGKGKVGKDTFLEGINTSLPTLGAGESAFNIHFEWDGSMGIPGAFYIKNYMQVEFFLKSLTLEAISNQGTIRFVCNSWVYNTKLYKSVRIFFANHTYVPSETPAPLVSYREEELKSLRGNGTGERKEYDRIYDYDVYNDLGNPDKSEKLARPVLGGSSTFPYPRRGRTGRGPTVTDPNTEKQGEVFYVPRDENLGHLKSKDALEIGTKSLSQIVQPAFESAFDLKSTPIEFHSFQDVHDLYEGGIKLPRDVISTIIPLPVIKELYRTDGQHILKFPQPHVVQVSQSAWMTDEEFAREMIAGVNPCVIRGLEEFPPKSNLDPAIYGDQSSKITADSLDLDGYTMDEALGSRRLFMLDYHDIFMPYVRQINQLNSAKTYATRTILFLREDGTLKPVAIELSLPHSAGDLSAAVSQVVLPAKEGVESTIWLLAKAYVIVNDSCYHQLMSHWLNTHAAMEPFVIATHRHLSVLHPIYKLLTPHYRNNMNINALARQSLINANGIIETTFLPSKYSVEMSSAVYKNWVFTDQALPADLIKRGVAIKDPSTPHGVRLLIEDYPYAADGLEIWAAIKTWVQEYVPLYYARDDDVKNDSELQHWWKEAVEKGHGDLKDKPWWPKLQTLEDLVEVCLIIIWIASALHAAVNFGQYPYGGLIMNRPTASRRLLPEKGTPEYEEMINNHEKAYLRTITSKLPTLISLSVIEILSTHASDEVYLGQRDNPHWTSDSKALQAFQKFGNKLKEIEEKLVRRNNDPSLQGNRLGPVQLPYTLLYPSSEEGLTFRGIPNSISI"}, "source": "paper PMC9518244", "about": "“TiO2 nanotube immobilised 5-lipoxygenase-mediated screening and isolation of anti-inflammatory active compounds from the leaves of lonicera japonica thunb” (Journal of Enzyme Inhibition and Medicinal Chemistry, 2022)", "target": "5-LOX (Glycine max, UniProt P08170)", "assay": "5-LOX immobilised on TiO2 nanotubes microreactor screening (HPLC peak area ratio)", "type": "binding", "conditions": "peak area ratio after and before the screening procedure", "procedure": "Glutaraldehyde (GA) was used as crosslinking agent to covalently immobilise 5-LOX on the amino terminated TNTs. The NH2-TNTs was added to GA solution and shaken in a incubator at room temperature (25 °C) for 8 h. The resulting product was labelled GA-TNTs. Then GA-TNTs was merged with Tris-HCl solution (0.1 M, pH 7.0) containing a certain amount of 5-LOX, and the immobilisation was performed in a shaker at 4 °C for a certain time. After that, the immobilised 5-LOX was acquired by centrifuge to remove supernatant and comprehensively rinsed with Tris-HCl buffer solution several times to remove the unimmobilised enzyme. The 5-LOX-TNTs composites were suspended in Tris-HCl solution and stored at 4 °C before use.\nThe crude extract of leaves of Lonicera japonica Thunb. was added to 5% (v/v) methanol-Tris buffer solution, and dissolved by ultrasonic to prepare an incubation solution with a concentration of about 5.66 mg/mL. Then 25 mg of material immobilised with 5-LOX was combined with 1 mL of incubation solution and incubated at 25 °C for 90 min on a shaker. After incubation, the material was washed with 1 mL of buffer solution for six times. Then 1 mL of 90% (v/v) acetonitrile aqueous solution was used for ultrasonic elution for 10 min. After centrifugation, the supernatant was filtered and analysed by HPLC-MS. […]", "data": [{"compound": "CC(Cc1ccc(O)c(O)c1)C(C)Cc1ccc(O)c(O)c1", "note": "(stereo not shown) [NDGA, Nordihydroguaiaretic acid, reference compound]", "values": [{"measurement": "binding rate", "value": "over 53%"}]}]}
